From patent publication US20230265134A1

Biological target: Panitumumab kappa light chain (wild-type) (human)
Assay: LCMS of Fabs cleaved from IgG; 2 HC + 2 LC co-expressed in HEK293

Panitumumab heavy chain, wild-type CH1 (from UniProt P01857 1-112)
% HC1-LC1 product: 35.3% and 47.9%

Values joined by “and” are separate entries in the source; they are usually repeats but may differ in a detail not shown here. Identical values can stand only once.
